Biological target: PIK3CA (human) (UniProt P42336)
Assay: Assessment of PIK3CA Kinase Activity

Protein sequences, listed by entry. Tags and fused reporters are not part of them.
UniProt P42336, whole entry, looked up: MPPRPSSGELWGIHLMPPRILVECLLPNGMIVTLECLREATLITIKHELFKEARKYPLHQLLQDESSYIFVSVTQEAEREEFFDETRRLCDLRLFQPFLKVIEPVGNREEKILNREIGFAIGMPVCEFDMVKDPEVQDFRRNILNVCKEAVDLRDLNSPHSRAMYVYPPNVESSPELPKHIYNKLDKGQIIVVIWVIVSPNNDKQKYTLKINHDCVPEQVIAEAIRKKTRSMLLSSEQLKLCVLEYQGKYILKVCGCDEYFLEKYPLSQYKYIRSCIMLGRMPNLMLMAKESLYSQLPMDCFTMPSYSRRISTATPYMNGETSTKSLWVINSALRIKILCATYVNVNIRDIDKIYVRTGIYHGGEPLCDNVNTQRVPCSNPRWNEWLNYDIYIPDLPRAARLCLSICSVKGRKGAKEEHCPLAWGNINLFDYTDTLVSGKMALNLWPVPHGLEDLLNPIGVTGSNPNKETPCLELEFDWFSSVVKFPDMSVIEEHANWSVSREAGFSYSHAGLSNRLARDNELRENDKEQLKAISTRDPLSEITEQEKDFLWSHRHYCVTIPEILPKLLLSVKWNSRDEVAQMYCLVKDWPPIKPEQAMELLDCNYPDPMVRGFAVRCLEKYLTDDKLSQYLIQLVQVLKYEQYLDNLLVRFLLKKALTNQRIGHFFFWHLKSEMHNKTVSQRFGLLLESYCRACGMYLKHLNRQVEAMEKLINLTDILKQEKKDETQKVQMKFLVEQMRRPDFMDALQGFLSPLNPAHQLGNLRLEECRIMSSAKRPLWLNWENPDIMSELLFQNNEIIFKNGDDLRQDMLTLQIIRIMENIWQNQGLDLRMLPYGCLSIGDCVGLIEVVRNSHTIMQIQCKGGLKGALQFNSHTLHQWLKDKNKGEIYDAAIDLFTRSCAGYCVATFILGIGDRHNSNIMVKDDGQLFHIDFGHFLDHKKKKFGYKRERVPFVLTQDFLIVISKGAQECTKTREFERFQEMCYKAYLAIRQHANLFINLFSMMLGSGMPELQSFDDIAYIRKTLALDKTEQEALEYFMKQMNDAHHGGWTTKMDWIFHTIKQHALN

Ki [nM]	SMILES
2	COc1ccc(Nc2ncc(Cc3ccc(S(C)(=O)=O)cc3)cc2-c2nc(C)nc(N)n2)cn1
8	COc1ccc(Nc2ncc(-c3ccc(C)nc3)cc2-c2nc(C)nc(N)n2)cn1
